Laboratory results: PubChem BioAssay (NCI)
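Dose response: 5 concentrations. Exposure: 48 h. Format: 96-well plates. Endpoint: linear interpolation; highest concentration if not reached. GI50: concentration for 50% inhibition of growth. TGI: concentration producing complete growth inhibition.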

Tests used:
Test in all cases: NCI anticancer screen, dose series, 48 h; in the data active = GI50 below about 0.43 µM; inactive = the rest
ACHN renal = tested on: ACHN renal
NCI/ADR-RES ovarian = tested on: NCI/ADR-RES ovarian
HS 578T breast = tested on: HS 578T breast
KM12 colon = tested on: KM12 colon
SF-295 CNS = tested on: SF-295 CNS
COLO 205 colon = tested on: COLO 205 colon
SK-MEL-2 melanoma = tested on: SK-MEL-2 melanoma
HCT-15 colon = tested on: HCT-15 colon
RPMI-8226 leukemia = tested on: RPMI-8226 leukemia
SW-620 colon = tested on: SW-620 colon
MDA-MB-231 breast = tested on: MDA-MB-231 breast
LOX IMVI melanoma = tested on: LOX IMVI melanoma
BT-549 breast = tested on: BT-549 breast
SK-OV-3 ovarian = tested on: SK-OV-3 ovarian
U251 CNS = tested on: U251 CNS
PC-3 prostate = tested on: PC-3 prostate
SK-MEL-5 melanoma = tested on: SK-MEL-5 melanoma
RXF 393 renal = tested on: RXF 393 renal
HCT-116 colon = tested on: HCT-116 colon
NCI-H23 lung = tested on: NCI-H23 lung
NCI-H522 lung = tested on: NCI-H522 lung
T-47D breast = tested on: T-47D breast
SNB-19 CNS = tested on: SNB-19 CNS
K-562 leukemia = tested on: K-562 leukemia
OVCAR-5 ovarian = tested on: OVCAR-5 ovarian
786-0 renal = tested on: 786-0 renal
CCRF-CEM leukemia = tested on: CCRF-CEM leukemia
NCI-H322M lung = tested on: NCI-H322M lung
HT29 colon = tested on: HT29 colon
SF-268 CNS = tested on: SF-268 CNS
OVCAR-4 ovarian = tested on: OVCAR-4 ovarian
OVCAR-3 ovarian = tested on: OVCAR-3 ovarian
UO-31 renal = tested on: UO-31 renal
MALME-3M melanoma = tested on: MALME-3M melanoma
CAKI-1 renal = tested on: CAKI-1 renal
MDA-MB-435 = tested on: MDA-MB-435
M14 melanoma = tested on: M14 melanoma
NCI-H226 lung = tested on: NCI-H226 lung
HOP-92 NSCLC = tested on: HOP-92 NSCLC
SN12C renal = tested on: SN12C renal
MOLT-4 leukemia = tested on: MOLT-4 leukemia
TK-10 renal = tested on: TK-10 renal
UACC-257 melanoma = tested on: UACC-257 melanoma
A549 NSCLC = tested on: A549 NSCLC
HCC-2998 colon = tested on: HCC-2998 colon
HOP-62 NSCLC = tested on: HOP-62 NSCLC
EKVX NSCLC = tested on: EKVX NSCLC
SNB-75 CNS = tested on: SNB-75 CNS
HL-60(TB) leukemia = tested on: HL-60(TB) leukemia
OVCAR-8 ovarian = tested on: OVCAR-8 ovarian
DU-145 prostate = tested on: DU-145 prostate
SK-MEL-28 melanoma = tested on: SK-MEL-28 melanoma
UACC-62 melanoma = tested on: UACC-62 melanoma
SF-539 CNS = tested on: SF-539 CNS
MDA-N = tested on: MDA-N
IGROV1 ovarian = tested on: IGROV1 ovarian
MCF7 breast = tested on: MCF7 breast

NS(=O)(=O)c1ccc(NC2=NCC(CI)S2)cc1 (centres undefined)
inactive: GI50 (ACHN renal) > 100 µM | GI50 (NCI/ADR-RES ovarian) > 100 µM | GI50 (HS 578T breast) > 100 µM | GI50 (KM12 colon) > 100 µM | GI50 (SF-295 CNS) > 100 µM | GI50 (COLO 205 colon) > 100 µM | GI50 (SK-MEL-2 melanoma) > 100 µM | GI50 (HCT-15 colon) > 100 µM | GI50 (RPMI-8226 leukemia) 33.5 µM | GI50 (SW-620 colon) > 100 µM | GI50 (MDA-MB-231 breast) > 100 µM | GI50 (LOX IMVI melanoma) > 100 µM | GI50 (BT-549 breast) > 100 µM | GI50 (SK-OV-3 ovarian) > 100 µM | GI50 (U251 CNS) > 100 µM | GI50 (PC-3 prostate) > 100 µM | GI50 (SK-MEL-5 melanoma) > 100 µM | GI50 (RXF 393 renal) > 100 µM | GI50 (HCT-116 colon) > 100 µM | GI50 (NCI-H23 lung) > 100 µM | GI50 (NCI-H522 lung) > 100 µM | GI50 (T-47D breast) > 100 µM | GI50 (SNB-19 CNS) > 100 µM | GI50 (K-562 leukemia) > 100 µM | GI50 (OVCAR-5 ovarian) > 100 µM | GI50 (786-0 renal) > 100 µM | GI50 (CCRF-CEM leukemia) > 100 µM | GI50 (NCI-H322M lung) > 100 µM | GI50 (HT29 colon) > 100 µM | GI50 (SF-268 CNS) > 100 µM | GI50 (OVCAR-4 ovarian) > 100 µM | GI50 (OVCAR-3 ovarian) > 100 µM | GI50 (UO-31 renal) > 100 µM | GI50 (MALME-3M melanoma) > 100 µM | GI50 (CAKI-1 renal) > 100 µM | GI50 (MDA-MB-435) > 100 µM | GI50 (M14 melanoma) > 100 µM | GI50 (NCI-H226 lung) 95 µM | GI50 (HOP-92 NSCLC) > 100 µM | GI50 (SN12C renal) > 100 µM | GI50 (MOLT-4 leukemia) > 100 µM | GI50 (TK-10 renal) > 100 µM | GI50 (UACC-257 melanoma) > 100 µM | GI50 (A549 NSCLC) > 100 µM | GI50 (HCC-2998 colon) > 100 µM | GI50 (HOP-62 NSCLC) > 100 µM | GI50 (EKVX NSCLC) > 100 µM | GI50 (SNB-75 CNS) 98.4 µM | GI50 (HL-60(TB) leukemia) > 100 µM | GI50 (OVCAR-8 ovarian) > 100 µM | GI50 (DU-145 prostate) > 100 µM | GI50 (SK-MEL-28 melanoma) > 100 µM | GI50 (UACC-62 melanoma) > 100 µM | GI50 (SF-539 CNS) > 100 µM | GI50 (MDA-N) > 100 µM | GI50 (IGROV1 ovarian) > 100 µM | GI50 (MCF7 breast) > 100 µM
> 100 µM: TGI (ACHN renal) | TGI (NCI/ADR-RES ovarian) | TGI (HS 578T breast) | TGI (KM12 colon) | TGI (SF-295 CNS) | TGI (COLO 205 colon) | TGI (SK-MEL-2 melanoma) | TGI (HCT-15 colon) | TGI (RPMI-8226 leukemia) | TGI (SW-620 colon) | TGI (MDA-MB-231 breast) | TGI (LOX IMVI melanoma) | TGI (BT-549 breast) | TGI (SK-OV-3 ovarian) | TGI (U251 CNS) | TGI (PC-3 prostate) | TGI (SK-MEL-5 melanoma) | TGI (RXF 393 renal) | TGI (HCT-116 colon) | TGI (NCI-H23 lung) | TGI (NCI-H522 lung) | TGI (T-47D breast) | TGI (SNB-19 CNS) | TGI (K-562 leukemia) | TGI (OVCAR-5 ovarian) | TGI (786-0 renal) | TGI (CCRF-CEM leukemia) | TGI (NCI-H322M lung) | TGI (HT29 colon) | TGI (SF-268 CNS) | TGI (OVCAR-4 ovarian) | TGI (OVCAR-3 ovarian) | TGI (UO-31 renal) | TGI (MALME-3M melanoma) | TGI (CAKI-1 renal) | TGI (MDA-MB-435) | TGI (M14 melanoma) | TGI (NCI-H226 lung) | TGI (HOP-92 NSCLC) | TGI (SN12C renal) | TGI (MOLT-4 leukemia) | TGI (TK-10 renal) | TGI (UACC-257 melanoma) | TGI (A549 NSCLC) | TGI (HCC-2998 colon) | TGI (HOP-62 NSCLC) | TGI (EKVX NSCLC) | TGI (SNB-75 CNS) | TGI (HL-60(TB) leukemia) | TGI (OVCAR-8 ovarian) | TGI (DU-145 prostate) | TGI (SK-MEL-28 melanoma) | TGI (UACC-62 melanoma) | TGI (SF-539 CNS) | TGI (MDA-N) | TGI (IGROV1 ovarian) | TGI (MCF7 breast)
